Measured values: US20150354009A1, “COLORECTAL CANCER CLASSIFICATION WITH DIFFERENTIAL PROGNOSIS AND PERSONALIZED THERAPEUTIC RESPONSES” (ECOLE POLYTECHNIQUE FEDERALE DE LAUSANNE (EPFL), priority 2012, published 2015)

System: CRC cell lines
Assay: Drug response in cell lines (CellTiter-Glo proliferation, 72 h)
Format: cell-based, human
Conditions: percent proliferation with 3.4 μg cetuximab, normalized to vehicle-treated cells (FIG. 3B)
Procedure: Colon cancer cell lines were grown in DMEM (Gibco, USA) plus 10% FBS (Invitrogen, USA) without antibiotics/antimycotics. All the cell lines were confirmed to be negative for mycoplamsa by PCR (VenorGeM kit, Sigma, USA) prior to use and were tested monthly.
Proliferation was monitored using CellTiter-Glo® assay kit according to the manufacturer's instruction (Promega, Dubendorf, Switzerland) on day 3 (72 h).

cetuximab
sensitivity to cetuximab in the panel of CRC cell lines by subtype: cell lines sensitive to cetuximab were only present within the TA subtype
